US6458837B1, “Lipophilic diesters of chelating agents” (D-Pharm Ltd., priority 1997, dated 2002)

Assay: Octanol-saline partition coefficient (lipophilicity)
Format: physicochemical
Details: calcium salt (BAPTA: dicalcium salt); octanol/physiological saline; 26° C.
Procedure: The lipophilicity values of several BAPTA diesters salts of the invention were studied by comparing the solubility of these compounds in organic versus aqueous solutions. Octanol and physiological saline were used, respectively, as the organic and aqueous solutions. The partition coefficient (Pc), i.e the distribution ratio between the organic and the aqueous phases were determined for several specific BAPTA diesters salts of the general formula I: [drawing 6]

Row | Substance | LogPc, octanol-saline partition coefficient, M = Ca++
1 | Heptyl diester of BAPTA [C7H15] | 0.76
2 | Propyl diester of BAPTA [C3H7] | −0.51
3 | BAPTA diester of methylethylene glycol [CH3OCH2CH2] | −1.85
4 | Butyl diester of BAPTA [C4H9] | 0.32
5 | BAPTA diester of heptylethylene glycol [C7H15OCH2CH2] | 1.00
6 | BAPTA diester of heptyldiethylene glycol [C7H15(OCH2CH2)2] | 0.95
7 | Methyltriethylene glycol diester of BAPTA [CH3(OCH2CH2)3] | −1.00

Same assay, conditions: sodium salt (BAPTA: tetrasodium salt); octanol/physiological saline; 26° C.

Row | Substance | LogPc, octanol-saline partition coefficient, M = Na+
8 | Heptyl diester of BAPTA [C7H15] | 0.82
9 | Propyl diester of BAPTA [C3H7] | −0.63
10 | BAPTA diester of methylethylene glycol [CH3OCH2CH2] | −2.27
11 | Butyl diester of BAPTA [C4H9] | −0.01
12 | BAPTA diester of heptylethylene glycol [C7H15OCH2CH2] | 1.34
13 | BAPTA diester of heptyldiethylene glycol [C7H15(OCH2CH2)2] | 1.30
14 | Methyltriethylene glycol diester of BAPTA [CH3(OCH2CH2)3] | −1.93
